In EP1388586A2, “Identification of broadly reactive DR restricted epitopes” (priority 1998, dated 1999):
Read-outs that look alike come from different tables or passages of the source. Values belong to the compound of their own block, whether it stands above or below them.

Tests used:
DRB1*0301 (DR3w17) = target: T1, DRB1*0301 (DR3w17) (Homo sapiens, UniProt P01903+P01911, A100K/A102G/A103R/A169T/F55Y/I96L/K41T/L162R/M171V/P40S/Q125H/Q178H/Q39Y/R42S/S66N/T106N/T262R/W38E/Y61H); test: Class II peptide-binding assay, DR3 (pH 4.5); conditions: Table VIII;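 further: unlabeled peptide competing with a radiolabeled probe peptide for binding to affinity-purified HLA-DR3, IC50 regarded as an approximation of Kd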
T1 construct: used as sources of human HLA class II molecules; endogenous in cells; host or cells: MAT (EBV-transformed homozygous B cell line)

DRB1*0101 (DR1) = target: T2, DRB1*0101 (DR1) (Homo sapiens, UniProt P01903+P01911, A100R/D57E/F55L/F60I/F76Y/I96L/L162R/M171V/P40L/Q125E/R42F/V115G/Y59C); test: Class II peptide-binding assay, DR1;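 further: competition assay: unlabeled test peptides inhibit binding of a radiolabeled probe peptide to purified DR, with half-maximal inhibition taken as an approximate dissociation constant Kd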
T2 construct: used as sources of human HLA class II molecules; endogenous in cells; host or cells: LG2 (EBV-transformed homozygous B cell line)

DRB10404 (DR4w14) = target: T3, DRB10404 (DR4w14) (Homo sapiens, UniProt P01903+P01911, A100R/A169T/F76Y/I96L/K127E/L162R/M171V/N62H/P40V/Q125Y/R42H/S133A/S149N/S66Y/V209L/W38E); test: Class II peptide-binding assay, DR4w14;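 further: unlabeled peptides compete with a radiolabeled probe for binding to affinity-purified HLA-DR, neutral pH, class II amount titrated to bind a small fraction of label, IC50 approximates Kd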
T3 construct: used as sources of human HLA class II molecules; endogenous in cells; host or cells: BIN40 (EBV-transformed homozygous B cell line)

[1] = read-out: In IC50 Format DR3 nM, values in parentheses read as lower bounds
[2] = read-out: DR4w14 nM (In IC50 Format), purified HLA DR4w14

Compound: CSCC[C@H](NC(=O)[C@@H](NC(=O)[C@H](CCC(N)=O)NC(=O)[C@H](CC(N)=O)NC(=O)[C@H](CC(=O)O)NC(=O)CNC(=O)[C@H](CC(C)C)NC(=O)[C@H](CC(C)C)NC(=O)CNC(=O)[C@H](CC(=O)O)NC(=O)[C@@H](N)Cc1ccc(O)cc1)C(C)C)C(=O)N1CCC[C@H]1C(=O)N[C@@H](CCCCN)C(=O)N[C@H](C(=O)NCC(=O)O)[C@@H](C)O [Peptide 39.0391]
IC50 (DRB1*0301 (DR3w17); [1]): 11.1 µM

Compound: NQVMPKTGLLIIVLA [Peptide 39.0286]
IC50 (DRB1*0101 (DR1); read-out: In IC50 Format DR1): 2.63 µM

Compound: CC[C@H](C)[C@H](NC(=O)[C@H](CCCCN)NC(=O)[C@H](CC(C)C)NC(=O)[C@@H](N)[C@@H](C)O)C(=O)NCC(=O)NCC(=O)N[C@@H](CCC(=O)O)C(=O)N1CCC[C@H]1C(=O)N[C@@H](Cc1c[nH]cn1)C(=O)N[C@H](C(=O)N[C@@H](CO)C(=O)N[C@@H](Cc1ccc(O)cc1)C(=O)N1CCC[C@H]1C(=O)N1CCC[C@H]1C(=O)N[C@@H](CC(C)C)C(=O)O)[C@@H](C)CC [Peptide 39.0398]
IC50 (DRB1*0301 (DR3w17); read-out: In IC50 Format DR3): > 120 µM

Compound: CC[C@H](C)[C@H](NC(=O)CNC(=O)[C@H](Cc1ccccc1)NC(=O)[C@@H](NC(=O)[C@H](CC(C)C)NC(=O)[C@@H](N)CCC(N)=O)C(C)C)C(=O)N[C@@H](CCC(=O)O)C(=O)N[C@@H](CC(C)C)C(=O)N[C@@H](CCSC)C(=O)N[C@@H](CCC(=O)O)C(=O)N[C@H](C(=O)N[C@@H](CC(=O)O)C(=O)N1CCC[C@H]1C(=O)N[C@H](C(=O)NCC(=O)O)[C@@H](C)CC)C(C)C [Peptide 39.0401]
IC50 (DRB1*0301 (DR3w17); read-out: In IC50 Format DR3): 20 µM

Compound: CC[C@H](C)[C@H](NC(=O)[C@H](CCCCN)NC(=O)[C@H](CCC(=O)O)NC(=O)[C@@H](N)CCC(=O)O)C(=O)N[C@@H](Cc1c[nH]c2ccccc12)C(=O)N[C@@H](CCC(=O)O)C(=O)N[C@@H](CCC(=O)O)C(=O)N[C@@H](CC(C)C)C(=O)N[C@@H](CO)C(=O)N[C@@H](CCSC)C(=O)N[C@@H](CC(C)C)C(=O)N[C@@H](CCC(=O)O)C(=O)N[C@H](C(=O)N[C@@H](Cc1ccccc1)C(=O)N[C@@H](CCC(=O)O)C(=O)O)C(C)C [Peptide 39.0394]
IC50 (DRB1*0301 (DR3w17); [1]): 23.1 µM

Compound: CC[C@H](C)[C@H](NC(=O)[C@H](CCC(N)=O)NC(=O)[C@H](CC(N)=O)NC(=O)[C@H](CC(=O)O)NC(=O)CNC(=O)[C@H](CC(C)C)NC(=O)[C@H](CC(C)C)NC(=O)CNC(=O)[C@H](CC(=O)O)NC(=O)[C@H](Cc1ccc(O)cc1)NC(=O)[C@H](CO)NC(=O)[C@H](CC(C)C)NC(=O)CNC(=O)[C@H](CC(C)C)NC(=O)[C@@H](N)CS)C(=O)O [Peptide 39.0403]
IC50 (DRB1*0301 (DR3w17); read-out: In IC50 Format DR3): > 120 µM

Compound: CC(C)C[C@H](NC(=O)[C@H](C)NC(=O)[C@H](C)NC(=O)[C@H](CCC(N)=O)NC(=O)[C@H](Cc1ccccc1)NC(=O)[C@H](CCC(=O)O)NC(=O)[C@H](CO)NC(=O)[C@H](CCC(=O)O)NC(=O)[C@H](CC(C)C)NC(=O)[C@H](CC(=O)O)NC(=O)[C@@H]1CCCN1C(=O)[C@@H](N)Cc1ccccc1)C(=O)N[C@@H](CO)C(=O)N[C@@H](CCCNC(=N)N)C(=O)N[C@@H](CCCCN)C(=O)O [Peptide 39.0399]
IC50 (DRB1*0301 (DR3w17); read-out: In IC50 Format DR3): 115 µM

Compound: CC[C@H](C)[C@H](NC(=O)[C@H](C)NC(=O)[C@@H](NC(=O)[C@@H](NC(=O)[C@H](C)NC(=O)[C@@H](N)CC(C)C)[C@@H](C)CC)[C@@H](C)CC)C(=O)N[C@@H](CCC(=O)O)C(=O)NCC(=O)N[C@@H](CC(=O)O)C(=O)N[C@@H](CS)C(=O)N[C@@H](C)C(=O)N1CCC[C@H]1C(=O)N[C@@H](CCC(=O)O)C(=O)N[C@@H](CCC(=O)O)C(=O)N[C@@H](CCCCN)C(=O)O [Peptide 39.0392]
IC50 (DRB1*0301 (DR3w17); [1]): 15.8 µM

Compound: NQIMPKAGLLIIVLA [Peptide 39.0302]
IC50 (DRB1*0101 (DR1); read-out: In IC50 Format DR1): 0.114 µM

Compound: CC(C)C[C@H](NC(=O)[C@@H](NC(=O)[C@@H](NC(=O)[C@H](CCC(N)=O)NC(=O)[C@H](CO)NC(=O)[C@H](CCC(N)=O)NC(=O)[C@H](Cc1ccccc1)NC(=O)[C@H](CCCNC(=N)N)NC(=O)[C@H](C)NC(=O)[C@@H](N)Cc1ccc(O)cc1)[C@@H](C)O)[C@@H](C)O)C(=O)N[C@@H](CCC(=O)O)C(=O)N[C@@H](C)C(=O)N[C@@H](CCCCN)C(=O)N[C@H](C(N)=O)[C@@H](C)O [Peptide 717.22]
IC50 (DRB10404 (DR4w14); [2]): 0.0227 µM

Compound: C[C@H](NC(=O)[C@H](CCCCN)NC(=O)[C@H](CCC(=O)O)NC(=O)[C@@H](NC(=O)[C@@H](NC(=O)[C@H](CCC(=O)O)NC(=O)[C@H](CO)NC(=O)[C@H](CCC(N)=O)NC(=O)[C@H](Cc1ccccc1)NC(=O)[C@H](CCCNC(=N)N)NC(=O)[C@H](C)NC(=O)[C@@H](N)Cc1ccc(O)cc1)[C@@H](C)O)[C@@H](C)O)C(=O)N[C@@H](CCCCN)C(=O)N[C@H](C(N)=O)[C@@H](C)O [Peptide 717.07]
IC50 (DRB1*0101 (DR1); read-out: DR1 nM (In IC50 Format), purified HLA DR1): 0.278 µM

Compound: CC[C@H](C)[C@H](NC(=O)[C@H](CCCCN)NC(=O)[C@H](CC(C)C)NC(=O)[C@@H](NC(=O)[C@H](Cc1c[nH]cn1)NC(=O)[C@H](Cc1c[nH]cn1)NC(=O)[C@H](CC(C)C)NC(=O)[C@@H](NC(=O)[C@H](CCCCN)NC(=O)[C@@H](N)C(C)C)C(C)C)[C@@H](C)O)C(=O)NCC(=O)NCC(=O)N[C@@H](CCC(=O)O)C(=O)N1CCC[C@H]1C(=O)N[C@@H](Cc1c[nH]cn1)C(=O)O [Peptide 39.0397]
IC50 (DRB1*0301 (DR3w17); read-out: In IC50 Format DR3): > 120 µM

Compound: CC(C)C[C@H](NC(=O)[C@H](CC(N)=O)NC(=O)[C@H](C)NC(=O)CN)C(=O)N[C@@H](CC(N)=O)C(=O)N[C@@H](CC(C)C)C(=O)N[C@@H](CO)C(=O)N[C@@H](CS)C(=O)N[C@@H](Cc1c[nH]cn1)C(=O)N[C@@H](CO)C(=O)N[C@@H](C)C(=O)N[C@@H](CO)C(=O)N[C@@H](CC(N)=O)C(=O)N1CCC[C@H]1C(=O)N[C@@H](CO)C(=O)O [Peptide 39.0337]
IC50 (DRB1*0301 (DR3w17); [1]): > 111 µM

Compound: CC[C@H](C)[C@H](NC(=O)[C@H](C)NC(=O)[C@H](CC(C)C)NC(=O)[C@@H](NC(=O)[C@@H](NC(=O)[C@@H](NC(=O)[C@H](CC(C)C)NC(=O)[C@H](CC(C)C)NC(=O)CNC(=O)[C@H](C)N)[C@@H](C)CC)[C@@H](C)CC)C(C)C)C(=O)N[C@H](C(=O)N[C@@H](C)C(=O)N[C@@H](CCCNC(=N)N)C(=O)N[C@@H](CCC(=O)O)C(=O)NCC(=O)O)[C@@H](C)CC [Peptide 39.0304]
IC50 (DRB1*0101 (DR1); Table VIII, page 2, read-out: In IC50 Format DR1): 1.11 µM

Compound: CC[C@H](C)[C@H](NC(=O)[C@H](C)NC(=O)[C@H](C)NC(=O)[C@H](CCC(N)=O)NC(=O)[C@H](Cc1ccccc1)NC(=O)[C@H](CCC(=O)O)NC(=O)[C@H](CO)NC(=O)[C@H](CCC(=O)O)NC(=O)[C@H](CC(C)C)NC(=O)[C@H](CC(=O)O)NC(=O)[C@@H]1CCCN1C(=O)[C@@H](N)Cc1ccccc1)C(=O)N[C@@H](CO)C(=O)N[C@@H](CCCNC(=N)N)C(=O)N[C@@H](CCCCN)C(=O)O [Peptide 39.0387]
IC50 (DRB1*0301 (DR3w17); [1]): 90.9 µM

Compound: CC[C@H](C)[C@H](NC(=O)[C@H](CCC(N)=O)NC(=O)[C@H](CC(N)=O)NC(=O)[C@H](CC(=O)O)NC(=O)CNC(=O)[C@H](CC(C)C)NC(=O)[C@H](CC(C)C)NC(=O)CNC(=O)[C@H](CC(=O)O)NC(=O)[C@@H](N)Cc1ccc(O)cc1)C(=O)N[C@@H](CCSC)C(=O)N1CCC[C@H]1C(=O)N[C@@H](CCCCN)C(=O)N[C@@H](C)C(=O)NCC(=O)O [Peptide 39.0404]
IC50 (DRB1*0301 (DR3w17); read-out: In IC50 Format DR3): 37.5 µM

Compound: CC[C@H](C)[C@H](NC(=O)[C@H](CCCCN)NC(=O)[C@H](CCC(=O)O)NC(=O)[C@@H](N)CCC(=O)O)C(=O)N[C@@H](Cc1c[nH]c2ccccc12)C(=O)N[C@@H](CCC(=O)O)C(=O)N[C@@H](CCC(=O)O)C(=O)N[C@@H](CC(C)C)C(=O)N[C@@H](CO)C(=O)N[C@H](C(=O)N[C@@H](CC(C)C)C(=O)N[C@@H](CCC(=O)O)C(=O)N[C@H](C(=O)N[C@@H](Cc1ccccc1)C(=O)N[C@@H](CCC(=O)O)C(=O)O)C(C)C)C(C)C [Peptide 39.0406]
IC50 (DRB1*0301 (DR3w17); read-out: In IC50 Format DR3): 51.7 µM

Compound: CC(C)C[C@H](NC(=O)[C@@H](NC(=O)[C@@H](NC(=O)[C@H](CCC(N)=O)NC(=O)[C@H](CO)NC(=O)[C@H](CCC(N)=O)NC(=O)[C@H](Cc1ccccc1)NC(=O)[C@H](CCCNC(=N)N)NC(=O)[C@H](C)NC(=O)[C@H](N)Cc1ccc(O)cc1)[C@@H](C)O)[C@@H](C)O)C(=O)N[C@@H](CCCCN)C(=O)N[C@@H](C)C(=O)N[C@@H](CCCCN)C(=O)N[C@@H](C(N)=O)[C@H](C)O [Peptide 858.06]
IC50 (DRB10404 (DR4w14); read-out: DR4w14 nM, Table VIII, In IC50 Format): 0.0227 µM

Further lines, results first:

IC50 (DRB10404 (DR4w14); [2]): 0.114 µM
Compound: CC[C@H](C)[C@H](NC(=O)CNC(=O)[C@H](CO)NC(=O)[C@H](CC(C)C)NC(=O)[C@H](CC(N)=O)NC(=O)[C@H](C)NC(=O)[C@H](CO)NC(=O)[C@H](CO)NC(=O)[C@H](CO)NC(=O)[C@H](Cc1ccccc1)NC(=O)[C@@H](NC(=O)[C@H](CC(=O)O)NC(=O)[C@@H](NC(=O)[C@@H](NC(=O)CNC(=O)[C@H](CCSC)NC(=O)[C@H](C)NC(=O)[C@H](CCSC)NC(=O)[C@@H](N)CC(C)C)[C@@H](C)CC)[C@@H](C)O)C(C)C)C(=O)O [Peptide 705.08]

IC50 (DRB10404 (DR4w14); [2]): 2.63 µM
Compound: CC(C)C[C@H](NC(=O)[C@H](Cc1ccc(O)cc1)NC(=O)[C@H](CCCCN)NC(=O)[C@H](CO)NC(=O)[C@H](CCCNC(=N)N)NC(=O)[C@H](CCC(N)=O)NC(=O)[C@H](CO)NC(=O)[C@@H]1CCCN1C(=O)[C@H](CCCNC(=N)N)NC(=O)[C@H](CCCCN)NC(=O)[C@H](CCC(N)=O)NC(=O)[C@H](CO)NC(=O)[C@H](C)N)C(=O)N[C@@H](C)C(=O)N[C@H](C(=O)N[C@@H](C)C(=O)N[C@@H](CO)C(=O)N[C@H](C(=O)O)[C@@H](C)O)[C@@H](C)O [Peptide 765.011]
